Assay results published in PMC12810918, “Arginine metabolism has a pivotal function for the encystation of Giardia duodenalis” (PLOS Pathogens, 2026).

Tested on: N=C(N)NCCC[C@H](N)C(=O)O
Assay: purified protein
Details: 40 mM Hepes pH 7.0, 0-20 mM arginine

“ADIAI (recombinant ADI, assemblage AI, isolate WB C6) (Giardia lamblia ATCC 50803)” showed a Km of 470 ± 30 µM and a kcat of 5.57 ± 2.02 s⁻¹.
